From paper PMC11024108 come the findings set out here.

Assay in all cases: cross-link between two proteins; cross-linking mass spectrometry
Experiment [1] addresses T1, 26S proteasome non-ATPase regulatory subunit 7 (UniProt P26516).
T1 sequence: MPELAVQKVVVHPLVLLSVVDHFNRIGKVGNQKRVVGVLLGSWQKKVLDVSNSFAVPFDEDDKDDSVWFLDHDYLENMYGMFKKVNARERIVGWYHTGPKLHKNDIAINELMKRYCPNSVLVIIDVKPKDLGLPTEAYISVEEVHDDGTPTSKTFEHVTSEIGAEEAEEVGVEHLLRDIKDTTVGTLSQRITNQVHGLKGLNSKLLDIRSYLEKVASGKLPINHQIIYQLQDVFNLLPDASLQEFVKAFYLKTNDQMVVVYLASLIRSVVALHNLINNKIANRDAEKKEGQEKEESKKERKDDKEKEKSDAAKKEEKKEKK

For experiment [2], the target named is NADH dehydrogenase [ubiquinone] 1 alpha subcomplex subunit 7 (UniProt Q9Z1P6).
For experiment [3], the system named is Serine/threonine-protein kinase mTOR.

With Ubiquitin C-terminal hydrolase PSMD14, the “listed as a hit” value in experiment [1] is recorded as “yes”.

Regarding “NADH dehydrogenase [ubiquinone] iron-sulfur protein 2, mitochondrial, Q91WD5”, the “listed as a hit” value in experiment [2] is on record as “yes”.

Take “Regulatory-associated protein of mTOR, Q8K4Q0”: in experiment [3], the “listed as a hit” value is “yes”.
